Earlier results, collected in patent publication US11439626B2 (Icahn School of Medicine at Mount Sinai, priority 2019, dated 2022).

Assays:
[1] = cited from earlier work
patients with ALS = conditions: cited from earlier work

## Nc1nc2ccc(OC(F)(F)F)cc2s1 [riluzole, 2-Amino-6-(trifluoromethoxy)benzothiazole]
[1]; population estimate (THETA)
  Ka: 5 h⁻¹
[1]; variability parameter (ETA)
  V/F Inter-subject variability: 0.352
Patients with ALS; 50 mg/day, ALS patients
  survival compared to placebo: not statistically different from placebo
Patients with ALS; 100 mg/day (50 mg twice daily), ALS patients
  survival rate compared to placebo: statistically significant survival rate
Patients with ALS; 200 mg/day, ALS patients
  survival rates compared to the dose of 100 mg/day: did not have improved survival rates
Patients with ALS; doses of up to 100 mg twice daily, dose escalation study
  tolerability: well tolerated
